Several values for one entry are separate records, joined by “and”; a condition that tells them apart may be missing. Equal entries are not always repeated.
Target: T1, aldose reductase enzyme obtained from rat lens (Rattus norvegicus, UniProt P07943)
T1 construct: partially purified aldose reductase enzyme obtained from rat lens; from tissue; host or cells: rat lens
Experiment: Inhibition of partially purified aldose reductase from rat lens
Format: biochemical
Settings: IC50 (concentration of drug that inhibits 50% of the enzyme activity)
Excerpt: In every case the substrate employed was partially purified aldose reductase enzyme obtained from rat lens or human placenta.

For `O=C1NC(=O)C2(CCOc3ccc(F)cc32)N1` (single isomer, unassigned) [SARGES**], the IC50 was 270 nM and 610 nM.
